## Yeast mating assay 2: variants of the scFv Ab-95

The measurements come from Engelhart et al. 2022 (doi:10.1038/s41597-022-01779-4) through the FLAb antibody collection.

Antigen: PDVDLGDISGINAS, a 14-residue peptide of the SARS-CoV-2 spike HR2 region.

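Phage display of a naive human antibody library on the peptide gave the parent. The library (AAYL52) carries one to three amino acid substitutions per variant, with no insertions or deletions. In AlphaSeq, yeast of one mating type display the scFv and yeast of the other type display the target. Binding brings cells together so that they mate, and sequencing counts the barcode pairs among the diploids. Read counts were normalised to the haploid input and turned into Kd by a linear fit to BCL2-family pairs of known affinity, for each replicate. The assay was run in three technical replicates.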

Each scFv is VH, a 15-residue (Gly4Ser)3 linker, VL, as in the parent Ab-95, and differs from it in the CDRs of the light chain only.
VH: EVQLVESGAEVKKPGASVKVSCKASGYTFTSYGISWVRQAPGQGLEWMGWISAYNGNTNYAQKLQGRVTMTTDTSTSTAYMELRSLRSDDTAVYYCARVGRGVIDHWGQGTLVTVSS
VL: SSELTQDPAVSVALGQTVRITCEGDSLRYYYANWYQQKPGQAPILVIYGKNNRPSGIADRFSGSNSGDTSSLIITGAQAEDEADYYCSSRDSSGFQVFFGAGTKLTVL

The parent's light chain CDRs are EGDSLRYYYAN, GKNNRPS, SSRDSSGFQVF; each variant's own CDRs replace them letter for letter. Numbers give log10(Kd / nM), so 0 is 1 nM and 3 is 1 µM. Smaller is tighter. "nd" means that the variant was in the library but no mating with the target was seen in that replicate; the authors take this as a sign of poor binding, and no number exists. As a blank, each scFv also met three strains without target: over library AAYL52, 28% of these pairings were detected, typically at 3.91 and seldom below 2.90. The control count says in how many pairings with the empty strains this scFv gave a signal, with their mean in brackets. In this assay the parent's reference entry averaged 2.31; its copy inside this library read 2.25.

{"CDR-L1": "EGDRDRYYYAN", "CDR-L2": "GKNNRPS", "CDR-L3": "SSRDSSGFQVF", "replicates, log10 nM": "nd / 3.21 / 3.51", "empty controls": "3/9 (3.34)"}
{"CDR-L1": "EGDSTRYYYAN", "CDR-L2": "GKNNRTS", "CDR-L3": "SSLDSSGFQVF", "replicates, log10 nM": "nd / nd / 3.44", "empty controls": "3/9 (3.63)"}
{"CDR-L1": "EFDSLMYYYAN", "CDR-L2": "GKNNRPS", "CDR-L3": "SSRDHSGFQVF", "replicates, log10 nM": "2.87 / 2.55 / 2.11", "empty controls": "4/9 (4.63)"}
{"CDR-L1": "EGDSLRHYYAM", "CDR-L2": "GKNNRPS", "CDR-L3": "SSRDSSGFQTF", "replicates, log10 nM": "nd / 4.18 / nd", "empty controls": "4/9 (4.09)"}
{"CDR-L1": "EVCSLRYYYAN", "CDR-L2": "GKNNVPS", "CDR-L3": "SSRDSSGFQVF", "replicates, log10 nM": "nd / nd / nd", "empty controls": "2/9 (3.80)"}
{"CDR-L1": "EGDSLRYCYAN", "CDR-L2": "GKNNRWS", "CDR-L3": "SSRDRSGFQVF", "replicates, log10 nM": "2.91 / 3.27 / 2.28", "empty controls": "2/9 (3.50)"}
{"CDR-L1": "EGDSLRYYIAN", "CDR-L2": "GKNNRPS", "CDR-L3": "SYRDSSKFQVF", "replicates, log10 nM": "nd / nd / nd", "empty controls": "0/9"}
{"CDR-L1": "EGQSLRYYYAN", "CDR-L2": "GKYNRPS", "CDR-L3": "SSRRSSGFQVF", "replicates, log10 nM": "3.28 / 3.26 / 4.72", "empty controls": "3/9 (3.80)"}
{"CDR-L1": "EGDSLRYYYFN", "CDR-L2": "GKKNRPS", "CDR-L3": "SSRDSSGFQVW", "replicates, log10 nM": "nd / 5.35 / nd", "empty controls": "1/9 (5.23)"}
{"CDR-L1": "EGDSLRYYYAN", "CDR-L2": "GKNNLPS", "CDR-L3": "SSTDSSGFTVF", "replicates, log10 nM": "nd / nd / nd", "empty controls": "2/9 (3.03)"}
{"CDR-L1": "EGDSLRYYYAP", "CDR-L2": "GKNDRPS", "CDR-L3": "SSRDSSGFQVE", "replicates, log10 nM": "nd / nd / nd", "empty controls": "1/9 (4.18)"}
{"CDR-L1": "EGDSLGYYYAP", "CDR-L2": "GKNNRPS", "CDR-L3": "SSRDRSGFQVF", "replicates, log10 nM": "2.48 / 2.15 / 2.37", "empty controls": "1/9 (4.04)"}
{"CDR-L1": "EGFSLRYYYAN", "CDR-L2": "HKNNRPS", "CDR-L3": "SSRDSSGFQVF", "replicates, log10 nM": "nd / 2.99 / nd", "empty controls": "6/9 (3.89)"}
{"CDR-L1": "EGDSLRYYYAN", "CDR-L2": "GKNNFWS", "CDR-L3": "SSRDSSGDQVF", "replicates, log10 nM": "2.91 / nd / nd", "empty controls": "3/9 (3.51)"}
{"CDR-L1": "EGDSLRAYYAN", "CDR-L2": "GKNNRPS", "CDR-L3": "FSRDSTGFQVF", "replicates, log10 nM": "2.43 / 2.52 / 2.66", "empty controls": "2/9 (3.21)"}
{"CDR-L1": "EGDSLRYYYAN", "CDR-L2": "GKNNRLS", "CDR-L3": "PSRDSFGFQVF", "replicates, log10 nM": "2.87 / 2.81 / 2.30", "empty controls": "1/9 (3.52)"}
{"CDR-L1": "ERDSLGYYYAH", "CDR-L2": "GKNNRPS", "CDR-L3": "SSRDSSGFQVF", "replicates, log10 nM": "3.09 / 3.65 / 2.51", "empty controls": "0/9"}
{"CDR-L1": "EGDSLRQYYAN", "CDR-L2": "GKNNAPS", "CDR-L3": "SSRDSSGFQVY", "replicates, log10 nM": "2.80 / 2.68 / 2.87", "empty controls": "2/9 (3.93)"}
{"CDR-L1": "DGDSLRYYYAN", "CDR-L2": "GNNNRPS", "CDR-L3": "SSRDSSGFQVF", "replicates, log10 nM": "2.25 / 1.93 / 1.95", "empty controls": "2/9 (4.03)"}
{"CDR-L1": "EGDSLRYYQAN", "CDR-L2": "MKNNVPS", "CDR-L3": "SSRDSSGFQVF", "replicates, log10 nM": "2.86 / nd / nd", "empty controls": "1/9 (4.21)"}
{"CDR-L1": "EGDSLRYYYAN", "CDR-L2": "GKNNRPS", "CDR-L3": "SSEDSSGFQCF", "replicates, log10 nM": "4.36 / 3.42 / 2.50", "empty controls": "1/9 (4.48)"}

For reference, 2 entries of the list once more:

{"CDR-L1": "EGDSLRYYQAN", "CDR-L2": "MKNNVPS", "CDR-L3": "SSRDSSGFQVF", "replicates, log10 nM": "2.86 / nd / nd", "empty controls": "1/9 (4.21)"}
{"CDR-L1": "EGDSLRHYYAM", "CDR-L2": "GKNNRPS", "CDR-L3": "SSRDSSGFQTF", "replicates, log10 nM": "nd / 4.18 / nd", "empty controls": "4/9 (4.09)"}